Series [1] deals with O=CO. In words: purified protein. The note with it: 1 mM NAD+, 50 mM phosphate pH 7, 25 °C, apparent.
Series [2] deals with NC(=O)c1ccc[n+]([C@@H]2O[C@H](COP(=O)([O-])OP(=O)(O)OC[C@H]3O[C@@H](n4cnc5c(N)ncnc54)[C@H](O)[C@@H]3O)[C@@H](O)[C@H]2O)c1. As to the kind of experiment: purified protein. The note with it: 125 mM formate, 50 mM phosphate pH 7, 25 °C, apparent.

Km, kcat and kcat/Km data for one substance are collected here from article PMC9305538 (Chembiochem, 2022).

The term Km denotes the concentration of substrate that gives half-maximal velocity. What is called kcat is the number of substrate molecules converted per active site and unit of time at saturation. The kcat/Km is the turnover number divided by the Michaelis constant. Take FDHC23S ([Candida] boidinii; C23S): in series [1], the Km was 4230 ± 70 µM, the kcat is 1.78 s⁻¹ and the kcat/Km worked out at 420 M⁻¹ s⁻¹. Also, in series [2], the Km stood at 50 ± 20 µM and the kcat was 1.93 ± 0.12 s⁻¹.
